## scFv variants of Ab-14 (heavy chain) against a SARS-CoV-2 spike peptide

From the AlphaSeq antibody data of Li et al. 2023 (doi:10.1038/s41467-023-39022-2), copy in the FLAb collection.

Antigen: PDVDLGDISGINAS, a 14-residue peptide of the SARS-CoV-2 spike HR2 region.

Parent: Ab-14, a human scFv built as VH, a (GGGGS)3 linker, VL. Only the CDRs of the heavy chain vary.
VH: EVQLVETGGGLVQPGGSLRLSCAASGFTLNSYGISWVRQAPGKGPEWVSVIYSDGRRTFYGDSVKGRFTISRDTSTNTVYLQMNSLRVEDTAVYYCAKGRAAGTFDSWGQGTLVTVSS
VL: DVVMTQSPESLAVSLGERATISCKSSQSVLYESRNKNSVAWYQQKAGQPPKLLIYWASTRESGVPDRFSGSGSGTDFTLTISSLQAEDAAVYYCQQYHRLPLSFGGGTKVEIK

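These sequences belong to a second round, designed from the earlier measurements on random variants of the parent. Several design methods are mixed in this list. The assay is AlphaSeq: two haploid yeast populations carry antibody and antigen on their surface. After mating in shaken culture at 30 °C for 16 h, diploids were selected and their barcode pairs sequenced. A regression on co-assayed BCL2-family reference pairs converts the normalised counts of each replicate to an apparent Kd. The assay was run in six technical replicates.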

Each variant is given by its three heavy chain CDRs, as the data file delimits them; those of the parent are GFTLNSYGIS, VIYSDGRRTFYGDSVK, GRAAGTFDS.
This list holds designs with more than six substitutions.
Kd is apparent (estimated from mating counts) and averaged on the log scale over replicates with a signal. Smaller is tighter.
Where no diploid with the target was found in any replicate, the entry reads "no signal": below detection, most likely a poor binder, though not proof of it.

- GQDLNEYGIS, VIYADGLRTAYSENVK, GNQSQFDDG = no signal (0 of 6 replicates)
- GFDLDEYGIS, VIYADGMRTAYADSVK, GNHAGTFDV = 170 pM (5 of 6 replicates)
- GFGLMEYGIS, VIYADGMRTSYANSFK, GALAGTFDE = 9.4 nM (6 of 6 replicates)
- GFDLDEYGIS, VIYADGRRTAYTDSVK, GNVAGTFDI = 390 pM (6 of 6 replicates)
- GFNLDEYGIS, VIYADGRRTFYTDSVK, GEVAGTFDV = 300 pM (6 of 6 replicates)
- GFQLNEYGIS, VIYADGIRSEYADKVK, GGINASFGV = no signal (0 of 6 replicates)
- GFDINEYGIS, VIYADGNRTMYQDQVK, GGNGGSFVI = no signal (0 of 6 replicates)
- GQDINEYGIS, VIYADGLRKAYSQQVK, GQNLGDVKV = 160 nM (1 of 6 replicates)
- GFDLNEYGIS, VIYADGVRTAYADSVK, GENAGTFVV = 210 nM (2 of 6 replicates)
- GFDLNEYGIS, VIYADGMRTAYVDSVK, GQNAGTFDV = 19 nM (2 of 6 replicates)
- GFKLDEYGIS, VIYADGHRVAYSQKVK, GDNVGAFFE = 840 pM (6 of 6 replicates)
- GFNLNEYGIS, VIYADGKRTFYADSVK, GEAAGTFDV = 450 pM (6 of 6 replicates)
- GFDLNEYGIS, VIYADGRRTFYSDSVK, GANAGTFDV = 270 pM (6 of 6 replicates)
- GFDLNEYGIS, VIYADGQRTAYTDSVK, GNVAGTFDQ = 230 pM (6 of 6 replicates)
- GFKLDEYGIS, VIYADGRRTFYTDSVK, GGNAGTFDV = 210 pM (6 of 6 replicates)
- GFDLNEYGIS, VIYADGMRTAYVDSVK, GGNAGTFDV = 270 pM (6 of 6 replicates)
- GFDLNEYGIS, VIYADGRRTAYIDSVK, GEIAGTFDL = 330 pM (6 of 6 replicates)
- GFDLDEYGIS, VIYADGQRTAYVDSVK, GNVAGTFDV = 340 pM (6 of 6 replicates)
- GFDLNEYGIS, VIYADGRRTAYLDSVK, GEAAGTFDE = 9.3 nM (6 of 6 replicates)
- GFDLEEYGIS, VIYADGRRTAYADSVK, GNQAGTFDV = 1.4 nM (6 of 6 replicates)
- GFDINEYGIS, VIYADGRRTFYADSVK, GQTAGTFDI = 190 pM (6 of 6 replicates)
- GDGLEEYGIS, VIYADGMRTYYEPSVK, GNVNGVMFI = no signal (0 of 6 replicates)
- GFKLDEQGIS, VIYADGRRVGYTDSVK, GTNGINFTL = no signal (0 of 6 replicates)
- GFDLDEYGIS, VIYADGQRTFYKDSVK, GSNAGTFDM = 350 pM (6 of 6 replicates)
- GMDLKEYGIS, VIYADGKRSYYVQDVK, GTNVGQGTF = no signal (0 of 6 replicates)
- GFDLNEYGIS, VIYADGVRTFYADSVK, GEAAGTFDQ = no signal (0 of 6 replicates)
- GFSIDEYGIS, VIYADGLRQFYTNAVK, GMAAGTFDM = 1.7 nM (6 of 6 replicates)
- GFDLNEYGIS, VIYADGRRTAYADDVK, GENAGTFDQ = 660 pM (6 of 6 replicates)
- GFDIQEYGIS, VIYADGNRSAYIDAVK, GDTGSSFLE = no signal (0 of 6 replicates)
- GFDLNEYGIS, VIYADGKRTAYADDVK, GNTAGTFDL = 140 pM (6 of 6 replicates)
- GFDLNEYGIS, VIYADGMRTSYIDSVK, GNVAGTFDV = 520 pM (6 of 6 replicates)
- GFDLNEYGIS, VIYADGMRTAYADNVK, GTVAGTFDI = 170 pM (6 of 6 replicates)
- GFDLDEEGIS, VIYADGSRTAYSDNVK, GGFDIKVIV = no signal (0 of 6 replicates)
- GFCLDSYGSS, VILSDGRRTFYGDSVK, ARAAGTALS = no signal (0 of 6 replicates)
- GFDIDEYGVS, VIYADGFRKAYAESVK, GLQQFGFTI = no signal (0 of 6 replicates)
- GFDLNEYGIS, VIYADGLRTSYQDSVK, GQLAGTFDQ = 340 pM (6 of 6 replicates)
- GYNIDEYGIS, VIYADGQRTAYQNAVK, GEQAGIMMY = no signal (0 of 6 replicates)
- GFDLNEYGIS, VIYADGMRTAYSDSVK, GEVAGTFDT = 660 pM (6 of 6 replicates)
- GFDLNEYGIS, VIYADGMRTQYIDSVK, GNAAGTFDK = 1.6 nM (6 of 6 replicates)

The 2 strongest on average among those seen in every replicate, once more:

* GFDLNEYGIS, VIYADGKRTAYADDVK, GNTAGTFDL -> 140 pM (6 of 6 replicates)
* GFDLNEYGIS, VIYADGMRTAYADNVK, GTVAGTFDI -> 170 pM (6 of 6 replicates)

Of ten entries with the parent sequence, four were seen in most replicates (averages 2.2 nM to 240 nM), three in one and three in none, so single entries are noisy.
In the paper, a design with two or fewer of six values counts as a poor binder.
Nonspecific signal, from three strains lacking the peptide, appeared in 1% of pairings of all heavy chain designs, centred on 120 nM (5% of these signals below 7.0 nM); values are not corrected for it.
The range of this assay differs from that of the first round, and the authors advise against merging the two.